The target in one test is T1, THR beta (Homo sapiens, UniProt P10828).
T1 construct: expressed in transfected cells; host or cells: HEK293T (ATCC CRL-3216)
T1 sequence (P10828 1-461): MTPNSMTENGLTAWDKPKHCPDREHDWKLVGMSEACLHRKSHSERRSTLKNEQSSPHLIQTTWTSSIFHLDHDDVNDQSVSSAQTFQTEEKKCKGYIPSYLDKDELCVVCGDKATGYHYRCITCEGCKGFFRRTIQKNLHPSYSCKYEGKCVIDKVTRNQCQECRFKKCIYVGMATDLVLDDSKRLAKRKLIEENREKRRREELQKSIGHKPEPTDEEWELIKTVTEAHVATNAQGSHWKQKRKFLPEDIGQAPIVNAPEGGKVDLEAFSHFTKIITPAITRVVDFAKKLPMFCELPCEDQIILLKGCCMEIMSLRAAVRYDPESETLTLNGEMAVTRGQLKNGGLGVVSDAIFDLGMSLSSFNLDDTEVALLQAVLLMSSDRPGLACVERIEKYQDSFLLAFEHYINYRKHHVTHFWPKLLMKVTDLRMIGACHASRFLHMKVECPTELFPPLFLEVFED
T1 sequence (P19793 1-462 partner): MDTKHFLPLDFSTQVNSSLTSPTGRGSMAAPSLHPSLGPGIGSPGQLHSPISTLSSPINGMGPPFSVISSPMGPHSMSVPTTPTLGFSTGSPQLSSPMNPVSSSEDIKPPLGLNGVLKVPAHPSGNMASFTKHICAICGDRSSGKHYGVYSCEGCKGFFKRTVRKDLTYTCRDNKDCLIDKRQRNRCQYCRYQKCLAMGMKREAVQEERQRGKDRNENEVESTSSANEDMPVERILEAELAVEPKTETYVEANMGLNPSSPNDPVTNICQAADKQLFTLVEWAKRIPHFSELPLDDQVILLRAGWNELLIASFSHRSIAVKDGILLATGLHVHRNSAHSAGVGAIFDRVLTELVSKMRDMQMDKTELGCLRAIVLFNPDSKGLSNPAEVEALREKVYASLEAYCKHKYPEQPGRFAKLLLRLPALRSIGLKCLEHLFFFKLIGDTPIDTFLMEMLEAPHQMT
Nature of the test: HEK293T THR beta/RXR luciferase reporter assay (Assay 2). The class given is cell-based. The following applies: HEK-293T, read-out: Activity category Assay 2 THRβ (Emax). How it is done: HEK293T Reporter THRalpha/Beta/RXR Reporter Assay (Assay 2)
The purpose of this assay is to evaluate the effect of compounds on the thyroid hormone nuclear receptor pathway in HEK293T cells. To this end, HEK293T cells are transiently transfected with a luciferase reporter under the control of the thyroid response element (TRE), an RXR expression plasmid and either a THR alpha or THR beta expression plasmid. Transfected cells are stimulated with test compounds for 18-24 hours before activation of the thyroid hormone pathway is measured via a luciferase read-out.
Procedure. […] Ten five-fold dilutions of test compounds are prepared in DMSO and 30 nL are dispensed to the cells. […] Approximately 18-24 h after compound addition, 384 well plates are allowed to adjust to rt, 30 μL One-Glo (Promega catalog #E6120) is added to each well and luminescence is measured on a Perkin Elmer Enspire plate reader. Percent agonism is calculated using the following equation: 100× (sample-negative control)/(positive control-negative control).
For orientation: In a reporter assay the amount or activity of a reporter protein is the signal.

In test [1] the target is T2, human thyroid receptor beta ligand-binding domain (LBD) (Homo sapiens, UniProt P10828).
T2 construct: purchased Invitrogen
T2 sequence (P10828 217-461 limits assumed): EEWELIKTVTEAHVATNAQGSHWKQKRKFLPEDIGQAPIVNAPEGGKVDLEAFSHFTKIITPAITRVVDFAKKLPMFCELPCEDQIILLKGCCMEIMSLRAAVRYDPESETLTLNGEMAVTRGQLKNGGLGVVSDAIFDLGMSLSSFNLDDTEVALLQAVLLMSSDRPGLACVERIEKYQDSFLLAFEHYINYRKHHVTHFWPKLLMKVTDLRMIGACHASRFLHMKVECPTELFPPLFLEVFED
The experiment in a line: TR-FRET thyroid receptor beta coactivator assay (THR biochemical assay, Assay 1). The following applies: read-out: Activity category Assay 1 THRβ (Emax). The text has this:
The TR-FRET thyroid receptor beta coactivator assay was used with slight, optimized modifications of the manufacturer's protocol (Invitrogen). The assay uses a terbium-labeled anti-GST antibody, a glutathione-S-transferase (GST) tagged human thyroid receptor, beta or alpha, ligand-binding domain (LBD), and a fluorescein labeled SRC2-2 coactivator peptide. […] The energy transfer is detected as an increase in the fluorescence emission of the fluorescein acceptor, and a decrease in the fluorescence emission of the terbium donor. The assay is performed in a 384-well black plate in a final volume of 20 μL. Serial dilution of various test agonists was performed in DMSO (1% final DMSO concentration) and added to the test plate. Thyroid receptor beta LBD is added to the plate at a final concentration of 1 nM, followed by the mixture of the fluorescein labeled SRC2-2 coactivator peptide, and the terbium-labeled anti-GST antibody at final concentrations of 200 nM and 2 nM respectively. The assay is incubated for 1 hr at rt protected from light.
In general terms: Time-resolved FRET reads energy transfer from a long-lived donor to a nearby acceptor.

Test [2] relates to CPT1A gene expression in Huh-7 cells. Nature of the test: Huh-7 differential gene expression, CPT1A RT-qPCR (Assay 3). The class given is cell-based. The following applies: Homo sapiens, Huh-7, 24 h, read-out: Activity category Assay 3 Emax. Here is the method: Huh-7 Differential Gene Expression (Assay 3)
Fetal bovine serum (FBS) was incubated with washed resin (50 mg resin/mL FBS; resin weight is dry weight of resin prior to washing) for 5 hr at room temperature on a rotor. The FBS was separated from the resin via centrifugation and incubated with new, washed resin for 18 h at room temperature on a rotor.
Cell Culture and Drug Treatment
Huh-7 cells were cultured in DMEM (10-013-CM, Corning) supplemented with 10% FBS and 1% Pen-Strep at 37° C. under 5% C02. When 70-80% confluence was reached, the cells were removed by trypsinization. The medium was aspirated from the cell culture dish, the cell monolayer was washed with 1×PBS, and 0.05% trypsin, 0.53 mM EDTA (25-052-CV, Corning) solution was added to the dish. After 3 min incubation, the cells were detached completely by repeatedly pipetting solution onto the monolayer. Equal volume of DMEM supplemented with 10% rFBS and 1% Pen-Strep (TH-depleted DMEM) was added to the dish to inactivate the trypsin. The cell suspension was centrifuged at 350×g at room temperature for 3 min. The supernatant was aspirated out and the cell pellet was resuspended in TH-depleted DMEM. […] After 24 hr incubation, the media was replaced with treatment media. […]
ΔRn values were obtained from the qPCRsoft384 1.0 software and CPT1A gene expression was quantified via the 2-ΔΔCt method. […]
A general note: Real-time PCR tracks product formation cycle by cycle.

The Emax is the greatest response seen or fitted, relative to the assay's reference.

As for `CC(C)c1cc(Oc2c(Cl)cc(-n3nc(CC(=O)O)c(=O)[nH]c3=O)cc2Cl)n[nH]c1=O` [Compound 13, 2-(2-(3,5-dichloro-4-((5-isopropyl-6-oxo-1,6-dihydropyridazin-3-yl)oxy)phenyl)-3,5-dioxo-2,3,4,5-tetra-hydro-1,2,4-triazin-6-yl)acetic acid], the Emax at THR beta is more than 75%; in test [1] it was less than 50%.
As to `CC(C)c1cc(Oc2c(Cl)cc(-n3nc(N)c(=O)[nH]c3=O)cc2Cl)n[nH]c1=O` [Compound 10, 6-amino-2-[3,5-dichloro-4-[(5-isopropyl-6-oxo-1H-pyridazin-3-yl)oxy]phenyl]-4H-1,2,4-tri-azine-3,5-dione], the Emax in test [2] is 50 to 75%.

The values are drawn from patent US12180192B2, “Modulators of THR-β and methods of use thereof” (ALIGOS THERAPEUTICS, INC., priority 2019, dated 2024).
